Target: human GABAA α1β3γ2 receptor (Homo sapiens (Human), UniProt P14867+P18507)
Assay: Radioligand binding assay, competition for [3H]Flumazenil, HEK293F cells
Settings: Ki α1β3γ2 (nM)/Ki α2β2γ1 (nM)
Description: The affinity of compounds at GABAA γ2 subunit-containing receptors was measured by competition for [^3H]Flumazenil (81.1 Ci/mmol; Roche) binding to HEK293F cells expressing human (transiently transfected) receptors of composition α1β3γ2.
Harvested pellets from HEK293F cells expressing the different GABAA γ2 receptor subtypes were resuspended in Mannitol Buffer pH 7.2-7.4 and processed as described above for the cells expressing the GABAA γ1 subunit-containing receptors.
Assays were incubated to equilibrium for 1 hour at 4° C. and harvested onto GF/C uni-filters (Packard) by filtration using a Packard harvester and washing with ice-cold wash buffer (50 mM Tris; pH 7.5). After anhydrousing, filter-retained radioactivity was detected by liquid scintillation counting. Ki values were calculated using Excel-Fit (Microsoft) and are the means of two determinations.

C[C@@H]1N=C(c2nc(O)ccc2F)c2c(ccc(C(F)(F)F)c2Cl)-n2nc(C(=O)N3CC(F)C3)nc21 [Example 21, [(4S)-7-chloro-6-(3-fluoro-6-hydroxy-2-pyridyl)-4-methyl-8-(trifluoromethyl)-4H-[1,2,4]triazolo[1,5-a][1,4]benzodiazepin-2-yl]-(3-fluoroazetidin-1-yl)methanone]
γ2/γ1 Selectivity Ratio: 2538.6
